These results are taken from US9216988B2, “Benzyl sulfonamide derivatives as RORc modulators” (Genentech, Inc., priority 2011, dated 2015).

Protein sequences, listed by entry. Tags and fused reporters are not part of them. Residues count along the entry.
UniProt P51449, 269-508: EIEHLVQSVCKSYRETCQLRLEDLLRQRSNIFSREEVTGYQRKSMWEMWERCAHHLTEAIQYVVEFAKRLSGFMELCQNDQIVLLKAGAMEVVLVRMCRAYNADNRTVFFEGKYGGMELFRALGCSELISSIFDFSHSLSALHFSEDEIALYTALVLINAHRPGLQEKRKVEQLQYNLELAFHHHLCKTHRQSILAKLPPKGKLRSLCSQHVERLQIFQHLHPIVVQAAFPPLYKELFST

Structures are written as SMILES.

This assay deals with RORc ligand binding domain (Homo sapiens (Human), UniProt P51449). The conditions noted are these: read-out: RORc IC50; two values in a cell = separated enantiomers, stereochemical identity not determined.

As usually defined, the IC50 is the concentration that inhibits the measured activity by half. In the case of `CC(C)CN(Cc1ccc(N2CCC3(CCCO3)C2)cc1)S(=O)(=O)Cc1ccccc1` (stereo not shown) [Compound 185, N-(4-(1-oxa-7-azaspiro[4.4]nonan-7-yl)benzyl)-N-isobutyl-1-phenylmethanesulfonamide], the IC50 amounted to 80 nM.
With `CC(=O)N1CCN(c2ccc(CN(C3CCC3)S(=O)(=O)c3ccccc3F)c(F)c2)CC1` [Compound 37, N-[4-(4-Acetyl-piperazin-1-yl)-2-fluoro-benzyl]-N-cyclobutyl-2-fluoro-benzenesulfonamide] the figure was 76 nM; with `CC(C)CN(Cc1ccc(N2CC3(CCOC3)C2)cc1)S(=O)(=O)Cc1ccccc1` [Compound 186, N-(4-(6-oxa-2-azaspiro[3.4]octan-2-yl)benzyl)-N-isobutyl-1-phenylmethanesulfonamide], 59 nM; with `CC(=O)N1CCN(c2ccc(CN(C3CCC3)S(=O)(=O)Cc3ccccc3)c(F)c2)CC1` [Compound 96, N-[4-(4-Acetyl-piperazin-1-yl)-2-fluoro-benzyl]-N-cyclobutyl-C-phenyl-methanesulfonamide], 15 nM.
Turning to `CC(=O)N1CCN(c2ccc(CN(C3CCC3)S(=O)(=O)CCc3ccc(F)cc3)c(F)c2)CC1` [Compound 131, 2-(4-Fluoro-phenyl)-ethanesulfonic acid [4-(4-acetyl-piperazin-1-yl)-2-fluoro-benzyl]-cyclobutyl-amide], the IC50 was 175 nM.
As to `CN(C)S(=O)(=O)N1CCC(c2ccc(CN(CC(F)(F)F)S(=O)(=O)Cc3ccccc3)c(F)c2)CC1` [Compound 60, 4-(3-Fluoro-4-{[phenylmethanesulfonyl-(2,2,2-trifluoro-ethyl)-amino]-methyl}-phenyl)-piperidine-1-sulfonic acid dimethylamide], the IC50 was found to be 100 nM.
As to `CC(C)CN(Cc1ccc(O[C@H]2CCN(S(C)(=O)=O)C2)cc1)S(=O)(=O)Cc1ccccc1` [Compound 176, (S)-N-isobutyl-N-(4-((1-(methylsulfonyl)pyrrolidin-3-yl)oxy)benzyl)-1-phenylmethanesulfonamide], the IC50 stood at 240 nM.
